Experimental data taken from patent publication US12692290B2, “Modulators of tight junction permeability” (The University of Bath, priority 2020, dated 2026).

Experiment: In vivo gentamicin transport after intraluminal injection (ILI) into rat jejunum
Conditions: 10 mg/kg gentamicin without PIP peptide
Procedure: Male Wistar rats weighing 250-300 g were used in in vivo experiments. Rats were bred in house at the University of Bath. Rats were kept on a 12/12-hour light dark cycle. Experiments were conducted at the midpoint of the light cycle±3 hours. Rats had ad lib access to food and water throughout housing up to the beginning of experimental procedures. Following experimental procedures rats were euthanised by exposure to increasing concentration of CO2.
Rats were anaethetised using 5% inhaled isoflurane. Once anaesthesia was achieved, rats were transferred to a nose cone to maintain anaesthesia. A 2-cm incision was used to gain access to the abdominal cavity. […]
Blood samples (100 μL) were collected from either the tail vein or the portal vein into 1.5 mL Eppendorf tubes and allowed to clot at room temperature for 20 min. […] Samples were centrifuged at 2000×g for 10 min, with the supernatant being collected and analysed by LCMS/MS.
Rats were administered 10 mg/kg gentamicin by ILI with or without 20 mM of a PIP250 series peptide. Blood samples collected from 15 to 90 min post-IL were analysed for gentamicin. […] Blood samples were collected and analysed as previously described.
Samples were analysed using an Agilent 6545 quadrupole time-of-flight LC/MS instrument. 10 μL of gentamicin samples were injected into a C18 reversed-phase HPLC column and detected at 202 nm. […]

**Q.** Which “gentamicin serum levels after ILI of gentamicin alone” value does the source give for Gentamicin here?
**A.** did not results in detectable serum levels
